A selection: hits, their analogues and other compounds. The true share with any hit is near 4.2%.
UUG fidelity: yeast start codon fidelity modulation. S. cerevisiae UUG-firefly luciferase reporter, luminescence/redox ratio. activity score, % at 18.7 µM. 0.13% of 350,000 active;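 active = replicate mean at a twofold rise or more, about +100% in these data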;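 also: firefly luciferase made from a UUG start codon reports start codon fidelity; reporter light over untreated wells divided by growth signal over untreated wells; some hits fall short of that in this replicate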
MC4R barr agon: human MC4R agonism via beta-arrestin; activation, % at 8.9 µM; P32245; 360,000 compounds, 0.98% hits; U2OS MC4R beta-arrestin complementation, luminescence; percent of melanotan II response, DMSO zero;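 active = activation above a per-plate cutoff, the mean activation of sample wells on that plate plus 3 SD, cut at about 8% in these data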
NALP1 inh: inhibitors of NALP1 inflammasome in yeast; inhibition, % at 10 µM; S. cerevisiae NALP1/ASC/caspase-1 growth, X-gal OD620, 72 h; 280,000 compounds, 0.61% hits; in the data active = inhibition mostly above about 24%, no sharp cut-off; inactive = mostly below about 32%
HDAC3 inh: blocks human histone deacetylase 3; 320,000 compounds, 0.15% hits; AID 2718; O15379; inhibition, % at 8.3 µM; recombinant HDAC3, fluorogenic peptide/trypsin coupled, fluorescence; in the data active = inhibition above about 26%, passing the limit was not always enough
MC4R antag cAMP: blocks human MC4R cAMP signaling. P32245. MC4R-expressing cells, MTII-stimulated cAMP, LANCE TR-FRET. inhibition, % at 6.5 µM. 360,000 compounds, 0.48% hits;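 active = inhibition above its plate's cutoff, the mean of tested wells on that plate plus 3 SD, cut at about 29% in these data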
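system = U2OS cells with stable human MC4R expression | also added = Melanotan II challenge after compound preincubation | dosing = one concentration, 6.5 µM nominal | incubation = compound 30 min, challenge 1 h, detection 1 h | measured by = TR-FRET with Eu-cAMP and labeled anti-cAMP, 671 nm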
ALR inh: blocks human ALR sulfhydryl oxidase activity; P55789; purified ALR, DTT oxidation, H2O2 HRP-luminol luminescence; inhibition, % (test concentration not listed); 3.8% of 290,000 active; AID 485317;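 active = mean and each replicate at 75% or more; inconclusive = only one of the two met; inactive = neither met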;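 also: stock transfer was 7.5 nL into about 7.5 µL; 0% = neutral wells and 100% = wells with inactivated enzyme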
Large screens that a line does not name were inactive.

O=C(COc1ccc(C(=O)O)cc1)Nc1cccc(C(F)(F)F)c1	none (no result: UUG fidelity)
Cc1ccc(Cl)c(OCC(=O)Nc2ccc3c(c2)OCCO3)c1	MC4R barr agon 9.0
Cc1noc(C)c1S(=O)(=O)Nc1ccc2c(c1)C(=O)N([C@@H](C)CO)C[C@@H](C)[C@H](CN(C)S(=O)(=O)c1cn(C)cn1)OCCCC[C@H](C)O2	none (no result: MC4R barr agon, NALP1 inh, HDAC3 inh, MC4R antag cAMP, ALR inh)
FC(F)(F)c1cccc(N2CCN(c3nnnn3-c3ccccc3)CC2)c1	none (no result: NALP1 inh)
CN(C)C=NC1=NN(c2cccc(C(F)(F)F)c2)CC1	ALR inh 95 (no result: UUG fidelity)
CN1CCN(C=NC2=NN(c3cccc(C(F)(F)F)c3)CC2)CC1	ALR inh 99
C[C@@H]1CCCCO[C@H](CN(C)C(=O)Nc2ccc3c(c2)OCO3)[C@@H](C)CN([C@H](C)CO)C(=O)c2cc(NC(=O)c3ccncc3)ccc2O1	none (no result: MC4R barr agon, NALP1 inh, HDAC3 inh, MC4R antag cAMP, ALR inh)
CCC(=O)N(C)CCc1cc2c(c(OC)c1/C=N/Nc1ccc(C(=O)O)cc1)OCO2	ALR inh 99 (no result: UUG fidelity)
CCC(=O)N(C)CCc1cc2c(c(OC)c1/C=N/NC(=O)[C@H]1C[C@@H]1c1ccccc1)OCO2	none (no result: UUG fidelity, ALR inh)
O=S(=O)(c1cccc2cccnc12)N1CCN(Cc2ccc(OCCO)cc2)CC1	none (no result: MC4R barr agon, NALP1 inh, HDAC3 inh, MC4R antag cAMP, ALR inh)
COc1cccc(-n2nnnc2SCC(=O)Nc2cccc(NC(C)=O)c2)c1	none (no result: HDAC3 inh)
CC(=O)Nc1cccc(NC(=O)CSc2nnnn2Cc2ccccc2)c1	ALR inh 99
CCn1c(SCC(=O)Nc2cccc(C(C)=O)c2)nnc1C(C)C	ALR inh 99
CC(=O)c1ccc(-n2nnnc2SCC(=O)Nc2cccc(NC(=O)c3ccco3)c2)cc1	ALR inh 99
CCC(=O)Nc1cc(NC(=O)CSc2nnc(C(C)C)n2CC)ccc1C	none
COc1ccc(-n2nnnc2SCC(=O)Nc2cccc(NC(C)=O)c2)cc1OC	ALR inh 99
CN(C)C(=O)C[C@H]1CC[C@@H](NC(=O)NC2CCCC2)[C@@H](CO)O1	none (no result: MC4R barr agon, NALP1 inh, HDAC3 inh, MC4R antag cAMP, ALR inh)
Oc1cc2c(cc1O)C(c1ccccc1)CNCC2 (stereo not given)	ALR inh 98 (no result: NALP1 inh)
C[C@H](CO)N1C[C@H](C)[C@H](CN(C)Cc2cccc(C(F)(F)F)c2)Oc2ncc(/C=C/c3ccccc3)cc2C1=O	none (no result: MC4R barr agon, NALP1 inh, HDAC3 inh, MC4R antag cAMP, ALR inh)
COc1ccc(C2=CC3=C(Br)C(=O)C(C)(O)C(=O)C3=CO2)cc1 (stereo not given)	MC4R antag cAMP 35, ALR inh 90
COc1ccc2c(c1OC)C(=O)OC2Nc1nc(-c2ccc(-c3ccccc3)cc2)cs1 (stereo not given)	NALP1 inh 58, ALR inh 96
COc1cccc(-c2csc(NC3OC(=O)c4c3ccc(OC)c4OC)n2)c1 (stereo not given)	ALR inh 97
CCc1cc(SC#N)cc(CC)c1NC(=O)CCl	ALR inh 99 (no result: UUG fidelity)
C[C@H](CO)N1C[C@H](C)[C@H](CN(C)C(=O)Nc2ccc3c(c2)OCO3)Oc2ccc(NC(=O)Cn3cnnn3)cc2CC1=O	none (no result: MC4R barr agon, NALP1 inh, HDAC3 inh, MC4R antag cAMP, ALR inh)
O=C(NC(=S)NCc1ccccc1)c1ccccc1F	none
O=C(NC(=S)Nc1ccc2oc(=O)ccc2c1)c1ccccc1F	MC4R barr agon 8.4
O=C(NC(=S)NC(=O)c1ccccc1F)c1ccccc1F	ALR inh 89 (no result: UUG fidelity)
O=C(NC(=S)Nc1ccc2oc(-c3ccncc3)nc2c1)c1ccccc1F	none
Cc1ccc(N/C=C(\C2OC(=O)c3ccccc32)[N+](=O)[O-])c(C)c1 (stereo not given)	none (no result: UUG fidelity)
O=C1OC(/C(=C\Nc2ccc(F)cc2F)[N+](=O)[O-])c2ccccc21 (stereo not given)	ALR inh 97 (no result: UUG fidelity)
Cc1noc(C)c1COC(=O)[C@@H](NC(=O)c1ccccc1)C(C)C	NALP1 inh 24 (no result: UUG fidelity)
CC(C)[C@H](NC(=O)c1ccccc1)C(=O)OCc1nnc(-c2ccccc2)o1	none (no result: UUG fidelity)
CCCC(=O)Nc1ccc2c(c1)C(=O)N(C)[C@@H]1CC[C@@H](CC(=O)Nc3ccccc3)O[C@@H]1CO2	none (no result: MC4R barr agon, NALP1 inh, HDAC3 inh, MC4R antag cAMP, ALR inh)
CC(C)NC(=O)N(C)C[C@@H]1Oc2c(NC(=O)C3CCCCC3)cccc2C(=O)N([C@@H](C)CO)C[C@H]1C	none (no result: MC4R barr agon, NALP1 inh, HDAC3 inh, MC4R antag cAMP, ALR inh)
COc1ccc(-c2nc(CCl)cs2)cc1	none (no result: UUG fidelity, ALR inh)
COc1ccc(-c2nc(CCl)cs2)cc1OC	ALR inh 99
COc1cccc(-c2nc(CCl)cs2)c1	ALR inh 99
